Measured values reported in patent US20210363213A1, “GLUCAGON-GLP-1-GIP TRIPLE AGONIST COMPOUNDS” (priority 2013, published 2021).

By UniProt entry, the sequences of proteins in these tests, tags left out. Residues count along the entry.
UniProt P43220, 24-463: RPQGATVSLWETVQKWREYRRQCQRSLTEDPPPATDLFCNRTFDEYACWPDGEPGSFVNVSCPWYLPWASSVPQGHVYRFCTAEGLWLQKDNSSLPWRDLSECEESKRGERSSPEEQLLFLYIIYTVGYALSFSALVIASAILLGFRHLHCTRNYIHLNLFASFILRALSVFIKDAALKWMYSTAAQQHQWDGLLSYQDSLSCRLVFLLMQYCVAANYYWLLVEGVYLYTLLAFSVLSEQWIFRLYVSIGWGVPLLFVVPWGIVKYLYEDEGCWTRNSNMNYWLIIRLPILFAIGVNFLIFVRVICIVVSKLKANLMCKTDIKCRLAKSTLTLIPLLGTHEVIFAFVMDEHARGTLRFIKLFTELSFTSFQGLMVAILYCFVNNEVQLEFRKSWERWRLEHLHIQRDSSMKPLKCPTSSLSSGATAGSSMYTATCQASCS

Assays:
human GIP R = molecular target: T1, human GIP R (Homo sapiens, UniProt P48546); assay: Human GIP receptor (GIP-R) activity assay, cAMP induction (AlphaScreen) in HEK293 cells; type: cell-based; settings: read-out: GIP R (EC50 in nM); Table 2b (most comprehensive data); average EC50; cAMP in HEK293 cells expressing human GIP R
T1 construct: expressed in transfected cells
T1 sequence (P48546 22-466): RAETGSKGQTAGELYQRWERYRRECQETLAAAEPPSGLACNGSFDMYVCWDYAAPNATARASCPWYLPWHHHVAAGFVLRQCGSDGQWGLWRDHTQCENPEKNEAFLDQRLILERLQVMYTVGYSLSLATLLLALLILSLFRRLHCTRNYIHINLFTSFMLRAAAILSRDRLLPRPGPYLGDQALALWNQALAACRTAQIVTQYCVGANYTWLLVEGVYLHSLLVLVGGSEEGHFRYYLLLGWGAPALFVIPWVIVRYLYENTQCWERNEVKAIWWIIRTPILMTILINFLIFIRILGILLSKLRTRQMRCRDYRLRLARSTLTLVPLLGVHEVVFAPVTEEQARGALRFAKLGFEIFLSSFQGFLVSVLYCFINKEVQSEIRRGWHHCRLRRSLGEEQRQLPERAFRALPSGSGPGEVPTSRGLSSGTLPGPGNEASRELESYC

human GLP-1 R = molecular target: T2, human GLP-1 R (Homo sapiens, UniProt P43220); assay: Human GLP-1 receptor (GLP-1-R) activity assay, cAMP induction (AlphaScreen) in HEK293 cells; type: cell-based; settings: read-out: GLP1 R (EC50 in nM); Table 2b (most comprehensive data); average EC50; cAMP in HEK293 cells expressing human GLP-1 R
T2 construct: expressed in transfected cells

EC50 (human GIP R): > 10 nM
EC50 (human GLP-1 R): 0.48 nM
Substance: glucagon [reference compound]
